Test results from ChEMBL document CHEMBL5506047, “Impact of Combinatorial Histone Modifications on Acetyllysine Recognition by the ATAD2 and ATAD2B Bromodomains” (J Med Chem, 2024).

Biological target: T1, ATPase family AAA domain-containing protein 2 (Homo sapiens, UniProt Q6PL18)
T1 sequence (Q6PL18 whole entry): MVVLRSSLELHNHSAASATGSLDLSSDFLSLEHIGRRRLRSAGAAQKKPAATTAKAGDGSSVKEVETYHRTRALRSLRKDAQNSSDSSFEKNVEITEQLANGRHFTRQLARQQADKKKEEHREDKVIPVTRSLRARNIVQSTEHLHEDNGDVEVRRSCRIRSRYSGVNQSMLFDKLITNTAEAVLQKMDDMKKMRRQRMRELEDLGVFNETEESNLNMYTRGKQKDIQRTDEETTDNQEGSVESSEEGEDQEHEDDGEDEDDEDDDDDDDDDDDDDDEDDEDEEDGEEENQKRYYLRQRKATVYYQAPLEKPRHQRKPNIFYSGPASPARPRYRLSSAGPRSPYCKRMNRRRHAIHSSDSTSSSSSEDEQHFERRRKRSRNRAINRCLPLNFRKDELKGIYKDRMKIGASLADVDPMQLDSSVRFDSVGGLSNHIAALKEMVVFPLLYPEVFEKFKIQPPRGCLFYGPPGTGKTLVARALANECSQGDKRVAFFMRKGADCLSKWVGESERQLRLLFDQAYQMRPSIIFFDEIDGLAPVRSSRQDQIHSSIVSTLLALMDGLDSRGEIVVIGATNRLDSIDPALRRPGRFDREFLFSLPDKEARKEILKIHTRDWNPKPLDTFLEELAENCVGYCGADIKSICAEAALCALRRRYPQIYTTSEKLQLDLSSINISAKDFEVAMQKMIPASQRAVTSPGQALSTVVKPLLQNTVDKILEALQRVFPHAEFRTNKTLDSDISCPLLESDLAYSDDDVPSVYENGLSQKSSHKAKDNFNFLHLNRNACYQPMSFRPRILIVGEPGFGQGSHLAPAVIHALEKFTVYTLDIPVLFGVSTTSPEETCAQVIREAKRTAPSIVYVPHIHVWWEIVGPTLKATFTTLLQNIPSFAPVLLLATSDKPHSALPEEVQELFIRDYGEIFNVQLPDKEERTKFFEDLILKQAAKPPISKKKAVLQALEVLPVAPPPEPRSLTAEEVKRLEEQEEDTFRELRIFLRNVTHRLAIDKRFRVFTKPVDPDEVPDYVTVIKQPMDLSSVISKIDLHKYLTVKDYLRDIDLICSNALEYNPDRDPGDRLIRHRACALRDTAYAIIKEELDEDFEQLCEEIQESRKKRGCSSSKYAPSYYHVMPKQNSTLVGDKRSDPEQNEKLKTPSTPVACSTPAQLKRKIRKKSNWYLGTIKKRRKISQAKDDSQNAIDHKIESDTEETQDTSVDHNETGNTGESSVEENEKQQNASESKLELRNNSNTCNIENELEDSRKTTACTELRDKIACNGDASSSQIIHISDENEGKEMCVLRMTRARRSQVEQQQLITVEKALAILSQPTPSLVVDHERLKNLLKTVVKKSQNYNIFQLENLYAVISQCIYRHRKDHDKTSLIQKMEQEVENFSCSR
Assay: Binding affinity to human ATAD2 BRD assessed as dissociation constant by isothermal titration calorimetry

CC(=O)NCCCC[C@H](NC(=O)CNC(=O)[C@H](CCCNC(=N)N)NC(=O)CNC(=O)[C@@H](N)CO)C(=O)N[C@H](C(=O)NCC(=O)NCC(=O)N[C@@H](CCCCN)C(=O)N[C@@H](C)C(=O)N[C@@H](CCCNC(=N)N)C(=O)N[C@@H](C)C(=O)N[C@@H](CCCCN)C(=O)N[C@@H](C)C(=O)N[C@@H](CCCCN)C(=O)N[C@@H](CO)C(=O)N[C@@H](CCCNC(=N)N)C(=O)O)[C@@H](C)O
Kd: 160 µM
